Measurements: ChEMBL document CHEMBL5375969, “A Novel Bifunctional μOR Agonist and σ1R Antagonist with Potent Analgesic Responses and Reduced Adverse Effects” (2023)

Protein sequences, listed by entry. Tags and fused reporters are not part of them. Residues count along the entry.
UniProt P08684, 2-503 limits assumed: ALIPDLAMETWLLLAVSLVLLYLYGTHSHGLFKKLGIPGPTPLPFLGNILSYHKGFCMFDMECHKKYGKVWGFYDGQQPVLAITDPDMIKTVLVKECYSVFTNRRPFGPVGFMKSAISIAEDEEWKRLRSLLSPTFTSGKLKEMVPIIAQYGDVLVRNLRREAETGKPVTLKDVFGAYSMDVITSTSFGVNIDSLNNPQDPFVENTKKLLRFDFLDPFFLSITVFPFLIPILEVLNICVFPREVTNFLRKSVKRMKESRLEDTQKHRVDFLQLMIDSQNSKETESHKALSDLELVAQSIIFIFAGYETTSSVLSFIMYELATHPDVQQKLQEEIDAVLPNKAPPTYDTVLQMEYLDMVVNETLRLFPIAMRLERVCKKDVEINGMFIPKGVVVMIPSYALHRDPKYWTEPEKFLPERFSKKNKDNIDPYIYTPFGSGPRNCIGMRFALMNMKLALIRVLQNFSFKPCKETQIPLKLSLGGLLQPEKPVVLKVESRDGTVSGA

Biological target: Cytochrome P450 3A4 (Homo sapiens, UniProt P08684)
Test: Inhibition of human CYP3A4 using midazolam as substrate at 10 uM by LC-MS/MS analysis

Compound `CCC(=O)N(CC(CC)N1CCC(c2ccccc2)CC1)c1ccccn1` (stereo unspecified) has an inhibition (INH) of 13.1%.

Only a part of the results on these compounds is given; other tests are left out.
